2 molecules from paper PMC8899614, “Triterpenoid Saponins From the Fruit of Acanthopanax senticosus (Rupr. & Maxim.) Harms” (Frontiers in Chemistry, 2022) can be followed below.

Where only a bound is given, the exact number is not on record here.

This assay concerns NO production in LPS-induced BV2 microglia. In words: NO production inhibition in LPS-induced BV2 microglia (Griess reaction). Type of assay: cell-based. The settings on record: LPS 1 μg/ml, n = 3, x ± s, IC50 > 100 μM deemed inactive, read-out: Inhibitory effects on NO in LPS-induced BV-2 cells, IC50. Here is the method:
The anti-neuroinflammatory effect of compounds 1–29 was evaluated by LPS-induced BV2 microglia reported previously ([Luo et al., 2020]). The BV2 microglia cells were plated into a 96-well plate. After adding LPS (1 μg/ml) to each well for 12 h, it was treated with or without compounds of various concentrations (0, 100, 200, 300, 400, and 600 μM) for 12 h. The NO production in the supernatant was measured by the Griess reaction. The absorbance at 570 nm was measured using a microplate reader. The NO concentration and the inhibitory rate were calculated through a calibration curve. Quercetin was used as the positive control. Experiments were repeated three times.
Unfortunately, the results of the evaluation were not ideal.
Background: The Griess reaction detects nitrite, a stable product of nitric oxide.

For the molecule `CC1(C)CCC2(C(=O)O)CCC3(C)C(=CCC4C5(C)CCC(OC6OCC(O)C(OC7OC(CO)C(O)C(O)C7O)C6O)C(C)(C)C5CCC43C)C2C1` [Compound 21, oleanolic acid 3-O-β-D-glucopyranosyl (1→3)-α-L-arabinopyranoside], the half-inhibitory concentration (IC50) (in general, the point on the concentration scale where inhibition reaches its midpoint) was over 100 µM. With `CC1OC(OC2C(OC3CCC4(C)C(CCC5(C)C4CC=C4C6CC(C)(C)CCC6(C(=O)OC6OC(CO)C(O)C(O)C6O)CCC45C)C3(C)C)OCC(O)C2O)C(O)C(O)C1O` [Compound 26, oleanolic acid 3-O-α-L-rhamnopyranosyl(1→2)-α-L-arabinopyranosyl-28-O-β-D-glucopyranosyl ester], the IC50 is over 100 µM.
